Among the data in BindingDB's records for doi:10.1074/jbc.273.36.23321 (Synaptic Pharmaceutical, 1998) are Ki values, retold here.

The target in assay [1] is T1, Galanin receptor type 3 (Rattus norvegicus, UniProt O88626).
T1 sequence (O88626 whole entry): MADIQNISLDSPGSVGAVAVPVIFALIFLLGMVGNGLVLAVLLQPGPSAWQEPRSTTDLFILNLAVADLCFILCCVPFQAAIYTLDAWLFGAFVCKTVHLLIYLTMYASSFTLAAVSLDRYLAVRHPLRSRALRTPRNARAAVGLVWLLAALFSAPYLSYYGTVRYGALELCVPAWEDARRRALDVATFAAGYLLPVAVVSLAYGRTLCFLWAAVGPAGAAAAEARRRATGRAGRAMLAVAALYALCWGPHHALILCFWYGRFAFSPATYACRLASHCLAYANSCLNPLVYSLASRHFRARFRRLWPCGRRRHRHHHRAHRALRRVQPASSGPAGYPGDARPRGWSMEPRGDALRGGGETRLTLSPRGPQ

In assay [2] the target is T2, Galanin receptor type 3 (Homo sapiens, UniProt O60755).
T2 sequence (O60755 whole entry): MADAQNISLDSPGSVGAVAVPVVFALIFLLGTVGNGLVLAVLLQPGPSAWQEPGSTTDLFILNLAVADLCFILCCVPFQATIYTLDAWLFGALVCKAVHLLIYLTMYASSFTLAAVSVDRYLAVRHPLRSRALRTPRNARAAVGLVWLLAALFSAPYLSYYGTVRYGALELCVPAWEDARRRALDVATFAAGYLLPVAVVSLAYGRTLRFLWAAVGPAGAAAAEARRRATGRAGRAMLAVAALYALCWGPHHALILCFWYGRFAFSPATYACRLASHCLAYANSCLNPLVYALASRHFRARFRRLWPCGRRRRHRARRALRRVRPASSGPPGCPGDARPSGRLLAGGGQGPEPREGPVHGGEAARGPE

In the case of `CC[C@H](C)[C@H](NC(=O)[C@H](C)NC(=O)[C@H](Cc1cnc[nH]1)NC(=O)[C@@H]1CCCN1C(=O)CNC(=O)[C@H](CC(C)C)NC(=O)[C@H](CC(C)C)NC(=O)[C@H](Cc1ccc(O)cc1)NC(=O)CNC(=O)[C@H](C)NC(=O)[C@H](CO)NC(=O)[C@H](CC(N)=O)NC(=O)[C@H](CC(C)C)NC(=O)[C@@H](NC(=O)[C@H](Cc1c[nH]c2ccccc12)NC(=O)CN)[C@@H](C)O)C(=O)O` [Galanin (1-16), rat], on Galanin receptor type 3 [1], the Ki – broadly, a measure of affinity in units of concentration, obtained from inhibition or displacement – is 89.1 nM. In other words, the double-digit nanomolar range.

Turning to `CC[C@H](C)[C@H](NC(=O)[C@H](C)NC(=O)[C@H](Cc1c[nH]cn1)NC(=O)[C@@H]1CCCN1C(=O)CNC(=O)[C@H](CC(C)C)NC(=O)[C@H](CC(C)C)NC(=O)[C@H](Cc1ccc(O)cc1)NC(=O)CNC(=O)[C@H](C)NC(=O)[C@H](CO)NC(=O)[C@H](CC(N)=O)NC(=O)[C@H](CC(C)C)NC(=O)[C@@H](NC(=O)[C@@H](Cc1c[nH]c2ccccc12)NC(=O)CN)[C@@H](C)O)C(=O)N[C@@H](CC(=O)O)C(=O)N[C@@H](CC(N)=O)C(=O)N[C@@H](Cc1c[nH]cn1)C(=O)N[C@@H](CCCNC(=N)N)C(=O)N[C@@H](CO)C(=O)N[C@@H](Cc1ccccc1)C(=O)N[C@@H](Cc1c[nH]cn1)C(=O)N[C@@H](CC(=O)O)C(=O)N[C@@H](CCCCN)C(=O)N[C@@H](Cc1ccc(O)cc1)C(=O)NCC(=O)N[C@@H](CC(C)C)C(=O)N[C@@H](C)C(N)=O` [Galanin [D-Trp2], porcine], at Galanin receptor type 3 [2], the affinity corresponds to a Ki of 1000 nM.

With `CC[C@H](C)[C@H](NC(=O)[C@H](C)NC(=O)[C@H](Cc1cnc[nH]1)NC(=O)[C@@H]1CCCN1C(=O)CNC(=O)[C@H](CC(C)C)NC(=O)[C@H](CC(C)C)NC(=O)[C@H](Cc1ccc(O)cc1)NC(=O)CNC(=O)[C@H](C)NC(=O)[C@H](CO)NC(=O)[C@H](CC(N)=O)NC(=O)[C@H](CC(C)C)NC(=O)[C@@H](NC(=O)[C@H](Cc1c[nH]c2ccccc12)NC(=O)CN)[C@@H](C)O)C(=O)N[C@@H](CC(=O)O)C(=O)N[C@@H](CC(N)=O)C(=O)N[C@@H](Cc1cnc[nH]1)C(=O)N[C@@H](CCCN=C(N)N)C(=O)N[C@@H](CO)C(=O)N[C@@H](Cc1ccccc1)C(=O)N[C@@H](Cc1cnc[nH]1)C(=O)N[C@@H](CC(=O)O)C(=O)N[C@@H](CCCCN)C(=O)N[C@@H](Cc1ccc(O)cc1)C(=O)NCC(=O)N[C@@H](CC(C)C)C(=O)N[C@@H](C)C(N)=O` [Galanin, Porcine], the affinity on Galanin receptor type 3 [2] corresponds to a Ki of 9.77 nM. Against the preceding molecule, the Ki is about 100-fold lower.
